Test results from ChEMBL document CHEMBL1134334, “3-Aryl[1,2,4]triazino[4,3-a]benzimidazol-4(10H)-ones: a new class of selective A1 adenosine receptor antagonists” (J Med Chem, 2001).

The chains behind the UniProt entries cited, without tags or fusion partners.
UniProt P28190, whole entry: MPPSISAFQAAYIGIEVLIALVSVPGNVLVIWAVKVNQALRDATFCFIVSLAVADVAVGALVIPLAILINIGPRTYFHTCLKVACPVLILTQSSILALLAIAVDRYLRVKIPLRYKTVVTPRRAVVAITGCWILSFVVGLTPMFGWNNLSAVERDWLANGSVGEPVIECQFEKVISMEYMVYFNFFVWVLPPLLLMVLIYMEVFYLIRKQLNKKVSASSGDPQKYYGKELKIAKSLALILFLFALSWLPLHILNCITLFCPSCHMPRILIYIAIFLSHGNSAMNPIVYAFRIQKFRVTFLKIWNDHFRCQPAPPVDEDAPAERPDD

Legend:
[1] = tested on: Adenosine receptor A2a (Bos taurus); assay: Displacement of [3H]-CGS- 21680 from adenosine A2a receptor in bovine striatal membrane at 10 uM.; conditions: Striatum
[2] = tested on: Adenosine receptor A3 (Bos taurus); conditions: 1 uM
[3] = molecular target: Adenosine receptor A1 (Bos taurus) (UniProt P28190); assay: GTP shift for Adenosine A1 receptor; assay type: functional
How it was run: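 A1 binding in bovine cortical membranes with [3H]DPCPX as radioligand. Run with 1 mM GTP and without GTP, and the GTP shift was taken from comparing the two conditions. Compounds in DMSO, final ≤2%.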

[4] = tested on: Adenosine receptor A3 (Bos taurus); assay: Displacement of [125 I]AB-MECA from adenosine A3 receptors in bovine cortical membranes at 1 uM
[5] = molecular target: Adenosine receptor A1 (Bos taurus) (UniProt P28190)

inhibition [1]	inhibition [2]	GTP shift [3]	inhibition [4]	GTPshift [5]	Compound
56%					O=c1c(-c2ccco2)nnc2n(-c3ccccc3)c3ccccc3n12
62%	13%	0.8			O=c1c(-c2ccccc2)nnc2n(Cc3ccccc3)c3ccccc3n12
18%			2%	1	O=c1c(-c2ccccc2)nnc2n(-c3ccccc3)c3ccccc3n12
32%					Cn1c2ccccc2n2c(=O)c(-c3ccc(O)c(O)c3)nnc12
